This is an account of results in ChEMBL document CHEMBL3407349, “The discovery of Polo-like kinase 4 inhibitors: identification of (1R,2S).2-(3-((E).4-(((cis).2,6-dimethylmorpholino)methyl)styryl). 1H.indazol-6-yl)-5'-methoxyspiro[cyclopropane-1,3'-indolin]-2'-one (CFI-400945) as a potent, orally active antitumor agent” (J Med Chem, 2015).

The clearance is a measure of how efficiently the substance is removed, as volume per time. Low readings indicate inefficient removal, high ones efficient removal.

For `COc1ccc2c(c1)[C@]1(C[C@H]1c1ccc3c(/C=C/c4ccc(CN5CCOCC5)cc4)n[nH]c3c1)C(=O)N2C`, the clearance amounted to 31.7 mL/min/kg in the data set filed under Rattus norvegicus and 26.7 mL/min/kg in the data set filed under Canis familiaris.
